According to patent publication US20250382269A1 (CFD Research Corporation, priority 2019, published 2025):
Values after ≈ are worked out from the molar mass of the structure shown.

System: HepG2 cells
Test: Cytotoxicity MTT assay in HepG2 liver cell line
Assay type: cell-based
Conditions: Homo sapiens
Protocol: Additionally, the antimicrobial compounds were analyzed for cytotoxicity. […] We utilized the standard MTT assay (Promega CellTiter 96) and GraphPad Prism 7 software to determine EC50 values for each analogue. Briefly, 20,000 HepG2 cells in 200 μl of the ATCC recommended media were seeded in each well of a 96-well plate with a moisture barrier created in the outermost wells. The cells were allowed to attach overnight at 37° C., and then observed under phase contrast microscopy for proper morphological characteristics. If cells appeared healthy and attached, test compounds were added in 7 concentrations from […] (n=3) from freshly prepared DMSO stock plates. […] Once incubations were complete, the spectrophotometric absorbance of the samples was measured at a wavelength of 595 nm. […] For the HepaRG assay, NoSpin HepaRG™ cells (Lonza, cat #NSHPRG) were thawed and plated with 20,000 cells per well. They were allowed to attach for 4 h (optimal DME profile per Lonza's testing) before dosing following the identical protocol as above.

Cc1[nH]c2ccccc2c1Sc1ccc(Br)cc1 [Compound 172C, 3-((4-bromophenyl)thio)-2-methyl-1H-indole]
EC50: 26.8 µg/mL (≈ 84.2 µM)
